Experimental data taken from ChEMBL document CHEMBL5030540 (J Med Chem, 2021).

Chains of the proteins cited; added tags and fusions are not shown.
UniProt P42866, whole entry: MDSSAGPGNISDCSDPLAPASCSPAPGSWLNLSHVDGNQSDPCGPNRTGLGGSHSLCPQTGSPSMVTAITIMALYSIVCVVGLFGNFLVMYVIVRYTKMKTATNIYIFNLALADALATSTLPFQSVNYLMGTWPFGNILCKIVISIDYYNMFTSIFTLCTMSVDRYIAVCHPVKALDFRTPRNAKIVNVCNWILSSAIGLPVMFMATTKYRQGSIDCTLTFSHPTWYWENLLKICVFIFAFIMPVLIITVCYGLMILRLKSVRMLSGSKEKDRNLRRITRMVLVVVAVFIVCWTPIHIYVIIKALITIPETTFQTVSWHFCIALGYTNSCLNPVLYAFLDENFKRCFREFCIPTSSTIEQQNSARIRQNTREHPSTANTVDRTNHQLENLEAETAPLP

Target: Mu-type opioid receptor (Mus musculus) (UniProt P42866)
Experiment: Partial agonist activity at mouse MOR expressed in HEK293T cells assessed as Nb33 recruitment by BRET assay relative to control
Type: functional, cell-based
Settings: filed as partial agonist

**Q.** `CN1CC[C@]23c4c5ccc(O)c4O[C@H]2[C@@H](O)C=C[C@H]3[C@H]1C5` [MORPHINE] was tested. Which Emax did it give?
**A.** 71%
